For one compound, Ki results are on record in BindingDB's records for doi:10.1021/cb500018s (Johns Hopkins University, 2014).

Protein sequences, listed by entry. Tags and fused reporters are not part of them.
UniProt P21397, whole entry: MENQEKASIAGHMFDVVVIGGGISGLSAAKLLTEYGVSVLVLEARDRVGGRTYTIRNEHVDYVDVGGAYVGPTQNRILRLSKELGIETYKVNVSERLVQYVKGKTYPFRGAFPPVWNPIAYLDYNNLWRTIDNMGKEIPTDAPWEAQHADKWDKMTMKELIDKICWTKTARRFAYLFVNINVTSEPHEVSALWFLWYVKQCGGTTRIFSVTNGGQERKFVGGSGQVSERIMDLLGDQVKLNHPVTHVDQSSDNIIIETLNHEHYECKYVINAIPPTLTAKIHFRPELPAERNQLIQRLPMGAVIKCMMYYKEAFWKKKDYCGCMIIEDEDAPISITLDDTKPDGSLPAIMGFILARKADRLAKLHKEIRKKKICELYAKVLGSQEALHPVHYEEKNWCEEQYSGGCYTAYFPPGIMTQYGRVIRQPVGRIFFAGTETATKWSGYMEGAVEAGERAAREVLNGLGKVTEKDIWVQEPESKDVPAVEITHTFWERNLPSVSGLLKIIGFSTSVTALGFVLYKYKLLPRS
UniProt P27338, whole entry: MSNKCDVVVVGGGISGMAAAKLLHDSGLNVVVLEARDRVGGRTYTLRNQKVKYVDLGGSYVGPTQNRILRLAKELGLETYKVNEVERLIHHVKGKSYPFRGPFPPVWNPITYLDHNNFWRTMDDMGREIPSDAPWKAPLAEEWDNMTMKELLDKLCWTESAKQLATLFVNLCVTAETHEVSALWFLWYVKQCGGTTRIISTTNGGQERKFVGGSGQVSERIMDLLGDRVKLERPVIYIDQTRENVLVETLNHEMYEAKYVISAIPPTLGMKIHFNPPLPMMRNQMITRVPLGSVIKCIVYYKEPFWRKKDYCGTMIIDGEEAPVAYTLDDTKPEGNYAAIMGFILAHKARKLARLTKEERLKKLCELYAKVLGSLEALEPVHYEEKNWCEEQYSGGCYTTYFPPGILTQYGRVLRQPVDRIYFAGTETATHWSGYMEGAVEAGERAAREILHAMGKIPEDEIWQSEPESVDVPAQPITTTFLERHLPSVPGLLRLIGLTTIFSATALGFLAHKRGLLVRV

The target of test [1] is Amine oxidase [flavin-containing] A (Homo sapiens, UniProt P21397). Put plainly: MAO-A/B Activity and Inhibition Assay. The note with it: pH 7.5. How it is done:
(§1) Reactions (100 µL) were initiated by the addition of 2 µL MAO-A/B (final concentrations were 100-200 nM and 0.837 µM for MAO-A and MAO-B, respectively). The reaction mixtures contained 50 mM HEPES (pH 7.5), 0.1 mM 4-aminoantipyrine, 1 mM 3,5-dichloro-2-hydroxybenzenesulfonic acid, 0.04 mg/mL horseradish peroxidase, and appropriate concentration of buffered substrate (tyramine). Absorbance changes were measured at 515 nm.

Test [2] has as its target Amine oxidase [flavin-containing] B (Homo sapiens, UniProt P27338). Put plainly: MAO-A/B Activity and Inhibition Assay. The conditions noted are these: pH 7.5. As to the method: as §1

In the case of `NNCCc1ccccc1`, the figures for the inhibition constant (Ki) in test [1] and in test [2] were 820 nM and 3900 nM, respectively.

By Ki is commonly meant the equilibrium dissociation constant of an inhibitor or competing ligand from its target. A lower Ki goes with tighter binding.
